Antibody variant affinities, Ab-14 heavy chain, assay B

Source: Li et al. 2023 (doi:10.1038/s41467-023-39022-2), MIT Lincoln Laboratory and A-Alpha Bio; data file from the FLAb repository.

The target is the same throughout: PDVDLGDISGINAS, from the HR2 region of SARS-CoV-2 spike.

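The parent was found by panning a naive human phage display library on the peptide. These sequences belong to a second round, designed from the earlier measurements on random variants of the parent. Their group label is 14H_GP_Gibbs (GP: Gaussian process model; Gibbs: Gibbs sampling; a sequence that several methods proposed may carry one label only). The assay is AlphaSeq: two haploid yeast populations carry antibody and antigen on their surface. The frequency of each diploid, read from paired DNA barcodes, reflects how well the two displayed proteins bind. Each replicate has its own calibration line, from reference interactions of the BCL2 family. The assay was run in six technical replicates.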

Parent scFv Ab-14: VH joined to VL by three GGGGS repeats. Changes lie in the heavy chain CDRs alone.
VH: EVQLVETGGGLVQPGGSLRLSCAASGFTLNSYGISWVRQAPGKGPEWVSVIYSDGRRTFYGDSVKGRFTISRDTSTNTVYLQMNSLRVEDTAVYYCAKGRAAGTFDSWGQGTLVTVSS
VL: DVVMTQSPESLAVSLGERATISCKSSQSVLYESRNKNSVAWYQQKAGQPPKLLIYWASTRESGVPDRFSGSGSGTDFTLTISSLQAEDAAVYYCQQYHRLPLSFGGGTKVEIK

Each variant is given by its three heavy chain CDRs, as the data file delimits them; those of the parent are GFTLNSYGIS, VIYSDGRRTFYGDSVK, GRAAGTFDS. Numbers give log10(Kd / nM), so 0 is 1 nM and 3 is 1 µM. Smaller is tighter. The mean shown is taken over the replicates in which the pair was detected. Where no diploid with the target was found in that replicate, the entry reads "n.d.": below detection, most likely a poor binder, though not proof of it. As a blank, each scFv also met three strains without target: over all heavy chain designs, 1% of these pairings were detected, typically at 2.08 and seldom below 0.84. The control count says in how many pairings with the empty strains this scFv gave a signal, with their mean in brackets. The authors' rule: three or more of the six replicates give a measured affinity, fewer mean a poor binder. The range of this assay differs from that of the first round, and the authors advise against merging the two. The parent sequence was in this pool as ten entries: three were never detected, three once, and four in most replicates, with averages from 0.34 to 2.37.

| # | CDR-H1 | CDR-H2 | CDR-H3 | replicates, log10 nM | log10 Kd (nM), mean | control signals |
|---|---|---|---|---|---|---|
| 1 | GKSLNSYGIS | VIYSDGRRTFYVDDVK | GRTAGTFDS | n.d. n.d. n.d. n.d. n.d. n.d. | n.d. | 0/18 |
| 2 | GFDLNSYGIS | VIYSDGRRTFYDDSVK | GRTAGTFDD | 0.37 0.57 0.36 0.47 0.30 0.69 | 0.46 | 2/18 (2.06) |
| 3 | GFFLNSYGIS | VIYSDGRRTFYGDSVK | GKEAGTFDT | 1.58 1.99 1.59 0.38 2.43 1.07 | 1.51 | 1/18 (2.11) |
| 4 | GFSLNEYGIS | VIYSDGRRTFYGCSVK | GRNAGTFDS | n.d. n.d. n.d. 3.11 3.04 3.35 | 3.17 | 0/18 |
| 5 | GFSLNSYGIS | VIYSDGRRTFYKDSVK | GNTAGTFDT | 0.48 0.50 1.31 -0.22 0.51 0.91 | 0.58 | 0/18 |
| 6 | GFSLESYGIS | VIYSDGRRTFYGDQVK | GRTAGTFDS | 0.38 0.09 -0.09 n.d. -0.39 -0.09 | -0.02 | 0/18 |
| 7 | GKSLNTYGIS | VIYSDGRRTAYGDSVK | GRAAGTFDS | n.d. n.d. n.d. n.d. n.d. n.d. | n.d. | 0/18 |
| 8 | GFWLNEYGIS | VIYSDGRRTFYTDSVK | GRTAGTFDS | 0.26 0.08 0.36 0.45 0.40 0.53 | 0.35 | 0/18 |
| 9 | GFALNSYGIS | VIYSDGRRTFYGDSVK | GQAAGTFDL | 1.45 0.97 1.08 0.22 0.94 0.93 | 0.93 | 0/18 |
| 10 | GFELNSYGIS | VIYSDGRRTFYIDSVK | GKAAGTFDA | 0.31 1.02 0.70 0.99 1.65 1.62 | 1.05 | 0/18 |
| 11 | GFTLNSYGIS | VIYSDGKRTFYGDSVK | GLEAGTFDT | 0.38 0.10 0.68 0.36 0.40 0.80 | 0.45 | 0/18 |
| 12 | GFDLNSYGIS | VIYSDGRRTMYDDSVK | GRQAGTFDS | 0.96 1.37 0.26 -0.22 0.80 0.89 | 0.68 | 0/18 |
| 13 | GFSLNSYGIS | VIYSDGRRTFYGDSVK | GMKAGTFDS | 1.24 1.36 0.93 1.29 1.94 1.39 | 1.36 | 0/18 |
| 14 | GFWLNEYGIS | VIYSDGRRTFYADSVK | GRAAGTFDK | n.d. n.d. n.d. 1.48 1.81 1.89 | 1.73 | 0/18 |
| 15 | GFTLNSYGIS | VIYSDGKRTFYSDNVK | GEAAGTFDS | -0.07 n.d. -0.04 n.d. 0.43 0.20 | 0.13 | 0/18 |
| 16 | GFSLNEYGIS | VIYSDGWRTFYSDSVK | GRTAGTFDS | 1.03 0.85 1.01 0.77 0.36 1.22 | 0.87 | 0/18 |
| 17 | GFELNSYGIS | VIYSDGRRTFYDDSVK | GDAAGTFDS | 0.72 0.72 0.73 0.94 1.17 0.92 | 0.87 | 0/18 |
| 18 | GFDLNSYGIS | VIYSDGRRTFYIDSVK | GKAAGTFDQ | 0.44 -0.07 0.49 -0.13 0.10 0.15 | 0.16 | 0/18 |
| 19 | GFGLNDYGIS | VIYSDGRRTFYHDWVK | GRTAGTFDS | n.d. n.d. n.d. n.d. 1.99 0.80 | 1.40 | 0/18 |
| 20 | GFSLNEYGIS | VIYSDGKRTFYGWSVK | GRTAGTFDS | n.d. n.d. n.d. 2.19 0.96 1.42 | 1.52 | 0/18 |
| 21 | GFSLNSYGIS | VIYSDGHRTFYGDSVK | GKTAGTFDS | 1.23 0.18 0.36 -0.35 -0.10 0.36 | 0.28 | 0/18 |
| 22 | GFSLNSYGIS | VIYSDGRRTFYIDSVK | GRAAGTFDQ | 1.56 0.99 1.21 1.61 2.00 1.27 | 1.44 | 0/18 |
| 23 | GFPLNEYGIS | VIYSDGRRTWYGDSVK | GRTAGTFDS | 0.12 -0.08 -0.08 -0.32 -0.19 0.30 | -0.04 | 1/18 (2.27) |
| 24 | GFNLNSYGIS | VIYSDGRRTFYLDSVK | GNVAGTFDS | 0.20 -0.02 0.12 0.31 -0.34 0.26 | 0.09 | 0/18 |
| 25 | GFWLNDYGIS | VIYSDGRRTFYHDSVK | GRTAGTFDC | n.d. n.d. n.d. n.d. n.d. n.d. | n.d. | 0/18 |
| 26 | GFNLNSYGIS | VIYSDGRRTFYADAVK | GKTAGTFDS | 0.53 0.84 0.10 0.57 1.09 0.62 | 0.63 | 0/18 |
| 27 | GFGLNEYGIS | VIYSDGRRTFYIDSVK | GNAAGTFDS | 0.05 0.11 0.28 0.14 0.08 0.34 | 0.17 | 1/18 (1.21) |
| 28 | GFTLESYGIS | VIYSDGRRTFYHDSVK | GREAGTFDT | 1.15 0.16 -0.15 -0.28 -0.15 -0.55 | 0.03 | 0/18 |
| 29 | GFQLNSYGIS | VIYSDGRRTFYADQVK | GQTAGTFDS | n.d. n.d. n.d. 0.58 n.d. n.d. | 0.58 | 0/18 |
| 30 | KFTLESYGIS | VIYSDGRRTFYGDSVK | GKIAGTFDS | 1.20 1.69 n.d. 1.60 2.08 2.63 | 1.84 | 0/18 |
| 31 | GFDLNTYGIS | VIYSDGRRTFYADKVK | GRTAGTFDS | -0.13 -0.17 -0.15 -0.40 -0.24 -0.24 | -0.22 | 0/18 |
| 32 | GFELNSYGIS | VIYSDGRRTAYRDSVK | GRTAGTFDS | 1.65 0.28 0.52 0.30 0.22 0.25 | 0.54 | 0/18 |
| 33 | GFDLNSYGIS | VIYSDGKRTFYGDSVK | GQAAGTFDA | n.d. -0.25 n.d. -0.05 0.11 0.42 | 0.06 | 1/18 (1.96) |
| 34 | GFDLNSYGIS | VIYSDGKRTFYGDSVK | GHAAGTFDA | 0.30 0.38 0.61 0.05 0.21 0.14 | 0.28 | 1/18 (2.33) |
| 35 | GFSLNSYGIS | VIYSDGRRTFYGDDVK | GVEAGTFDS | 0.22 0.33 -0.22 0.10 0.46 0.80 | 0.28 | 0/18 |
| 36 | GFDLNSYGIS | VIYSDGRRTFYADKVK | GREAGTFDS | 0.06 0.18 -0.12 -0.29 -0.18 0.14 | -0.04 | 1/18 (1.96) |
| 37 | GFELNSYGIS | VIYSDGRRTFYADQVK | GTTAGTFDS | 0.42 -0.01 0.24 0.12 -0.21 0.49 | 0.18 | 1/18 (4.07) |
| 38 | GFELNSYGIS | VIYSDGRRTFYSDSVK | GRTAGTFDA | -0.05 -0.42 -0.45 -0.19 -0.60 -0.26 | -0.33 | 0/18 |
| 39 | GFTLNSYGIS | VIYSDGQRTFYADDVK | GRVAGTFDK | 0.55 0.35 0.48 0.53 0.08 0.43 | 0.40 | 1/18 (4.34) |
| 40 | GFGLNSYGIS | VIYADGRRTFYGDSVK | GQAAGTFDL | -0.10 -0.02 0.13 -0.14 -0.36 -0.10 | -0.10 | 0/18 |

3 of these entries, quoted again:

CDR-H1	CDR-H2	CDR-H3	replicates, log10 nM	log10 Kd (nM), mean	control signals
GFSLNSYGIS	VIYSDGRRTFYKDSVK	GNTAGTFDT	0.48 0.50 1.31 -0.22 0.51 0.91	0.58	0/18
GFDLNSYGIS	VIYSDGRRTFYIDSVK	GKAAGTFDQ	0.44 -0.07 0.49 -0.13 0.10 0.15	0.16	0/18
GFTLESYGIS	VIYSDGRRTFYHDSVK	GREAGTFDT	1.15 0.16 -0.15 -0.28 -0.15 -0.55	0.03	0/18